In this test the target is T1, thyroid-stimulating hormone receptor (TSHR) expressed on BHK cells (BHK-TSHR cells) (UniProt P16473 21-764, limits assumed).
T1 construct: whole, on cells; also called TSH receptor
Put plainly: radioligand saturation binding to BHK-TSHR cells, single-site non-linear regression. The method, then:
Specific binding was determined in the presence (nonspecific binding) and absence (total binding) of unlabeled rhCGH (25.0 μg/ml) or TSH (10 μg/ml). Binding reactions were terminated by removing the binding medium and the cell monolayers were washed three times with 1.0-2.0 ml of ice-cold PBS containing 1.0 mg/ml BSA and twice with 1.0-2.0 ml of ice cold albumin-free PBS. Cells were solubilized in 1.0 ml of 1.0N NaOH for 10 min at room temperature and cell-associated radioactivity was determined in a gamma counter. The measured radioactivity was normalized to cell number that was determined on plates of cells cultured in parallel. Binding data were analyzed by non-linear regression using Prizm 3.0 (GraphPad Software, San Diego, Calif.).
Both ¹²⁵I-CGH and ¹²⁵I-TSH bound to BHK-TSHR cells in a time-dependent manner and reached an apparent steady state within 2 h at 4° C. Binding of both radiolabeled ligands was saturable, specific, and of high affinity (FIG. 1A-B). […] The ¹²⁵I-CGH specific-binding data were directly fitted to a two-site model by non-linear regression to yield the equilibrium dissociation constant (Kd) and the maximum amount bound (Bmax) to each of the sites at steady state. […] Little or no binding of ¹²⁵I-TSH or ¹²⁵I-CGH was observed, in contrast, to parental BHK cells lacking the TSHR (data not shown). […]

The term Kd denotes the constant that tells how readily two partners part at equilibrium. Higher therefore signals lower affinity.

B1: human pituitary-derived TSH (BiosPacific) (ligand)
chain 1: not shown
chain 2: FCIPTEYTMHIERRECAYCLTINTTICAGYCMTRDINGKLFLPKYALSQDVCTYRDFIYRTVEIPGCPLHVAPYFSYPVALSCKCGKCNTDYSDCIHEAIKTNYCTKPQKSY
notes: Bought, pituitary-derived; also called human TSH
B1 gave a Kd of 41 nM.

(Values after US20070014736A1 (published 2007).)
